Measurements from patent EP2948187B1, “HETEROCYCLES AND THEIR RADIOLABELED ANALOGS USEFUL AS COX-1 SELECTIVE INHIBITORS” (Universita' Degli Studi di Bari, priority 2013, dated 2014).

By UniProt entry, the sequences of proteins in these tests, tags left out. Residues count along the entry.
UniProt P05979, 25-600: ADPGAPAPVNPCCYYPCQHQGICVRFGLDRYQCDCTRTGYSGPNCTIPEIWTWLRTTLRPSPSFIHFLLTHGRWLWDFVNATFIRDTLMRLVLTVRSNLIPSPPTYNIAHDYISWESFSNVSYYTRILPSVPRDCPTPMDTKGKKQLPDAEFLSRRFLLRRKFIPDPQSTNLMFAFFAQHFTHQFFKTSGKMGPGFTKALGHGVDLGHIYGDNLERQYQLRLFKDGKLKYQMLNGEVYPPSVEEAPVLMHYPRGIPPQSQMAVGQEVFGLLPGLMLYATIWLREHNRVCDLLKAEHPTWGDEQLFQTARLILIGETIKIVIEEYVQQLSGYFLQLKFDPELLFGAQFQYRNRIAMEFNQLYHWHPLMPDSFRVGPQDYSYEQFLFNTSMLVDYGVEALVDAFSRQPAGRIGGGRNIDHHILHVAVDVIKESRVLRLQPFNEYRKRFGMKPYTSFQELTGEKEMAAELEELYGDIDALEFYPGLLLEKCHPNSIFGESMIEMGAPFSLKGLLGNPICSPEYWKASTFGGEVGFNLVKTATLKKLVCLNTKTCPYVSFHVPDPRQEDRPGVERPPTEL

Molecular target: COX-1 (Ovis aries, UniProt P05979)
Assay: COX-1 inhibition assay (as disclosed in Chem. Med. Chem. 2012, 7, 629-641)
Assay type: biochemical
Procedure: The biological assays were carried out as disclosed in Chem. Med. Chem. 2012, 7, 629 - 641.

IC50 [nM]	Structure (SMILES)
1100	Nc1onc(-c2ccc(Cl)o2)c1-c1ccccc1 [(XIII), 3-(5-chlorofuran-2-yl)-4-phenylisoxazol-5-amine]
4300	Cc1onc(-c2ccc(Cl)o2)c1-c1ccc(N)cc1 [(XIV), 3-(5-chlorofuran-2-yl)-4-(4-aminophenyl)-5-methylisoxazole]
